Two substances from article PMC4613909 can be followed below.

The Kd is the equilibrium constant for the complex coming apart. Higher therefore signals a looser complex.

Test [1] concerns the target Artemia salina 60S ribosomal subunit (mature) (Artemia salina). Description: ELISA. To be noted: natural protein. On the technique in general: ELISA stands for enzyme-linked immunosorbent assay.
For test [2] the target is unchanged. The experiment in a line: iRIA (in vitro Ribosomes Interaction Assay, microwell solid-phase binding); 60S immobilised; ten-fold unlabeled eIF6 coincubated with labeled eIF6.
Test [3] shares this target. The experiment in a line: iRIA (in vitro Ribosomes Interaction Assay, microwell solid-phase binding); 60S immobilised; time course of labeled eIF6 binding (on-rate) at low Mg2+.
The target is the same in test [4]. Description: iRIA (in vitro Ribosomes Interaction Assay, microwell solid-phase binding); ribosomal particles immobilised; release of labeled eIF6 followed over time after maximal binding and wash (off-rate).

As for “human full length N-terminal his-tagged eIF6 (from UniProt P56537 1-245)”, the Kd in test [1] was 0.0628 nM.

Take “human full length N-terminal his-tagged eIF6 (from UniProt P56537 1-245) (natural protein)”: in test [2], the percent displacement of labeled eIF6 by ten-fold unlabeled eIF6 amounted to 50%. In addition, the percent of maximal binding within two minutes in test [3] was determined as 25%. The percent of eIF6 released at 30 min in test [4] was 20%.
